## Ab-14 light chain CDR variants: yeast mating affinities

The measurements come from Engelhart et al. 2022 (doi:10.1038/s41597-022-01779-4) through the FLAb antibody collection.

Binding partner: SARS-CoV-2 spike HR2 peptide, sequence PDVDLGDISGINAS.

The variants keep the heavy chain, the linker and the frameworks of Ab-14 (scFv order VH, a (GGGGS)3 linker, VL).
VH: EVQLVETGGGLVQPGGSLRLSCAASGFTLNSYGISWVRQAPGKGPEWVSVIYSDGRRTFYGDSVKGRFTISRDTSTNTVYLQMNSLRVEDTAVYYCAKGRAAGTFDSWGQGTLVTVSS
VL: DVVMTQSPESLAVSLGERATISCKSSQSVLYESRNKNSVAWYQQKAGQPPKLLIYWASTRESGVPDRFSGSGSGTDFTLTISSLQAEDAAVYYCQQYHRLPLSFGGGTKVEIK

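The starting antibody came from a phage panning campaign against this peptide. Library AAYL50 holds single substitutions and randomly drawn double and triple substitutions in the CDRs. The assay is AlphaSeq: two haploid yeast populations carry antibody and antigen on their surface. Pairs that bind mate more often; barcode pairs of the diploids are counted by sequencing. Read counts were normalised to the haploid input and turned into Kd by a linear fit to BCL2-family pairs of known affinity, for each replicate. Each pool was mated in three replicate cultures.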

Sequences are complete VL domains. Scale: log10 of Kd in nM, estimated from mating counts; low values are strong binders. A pair that was not seen in that replicate is written "nd"; this usually means weak binding, but a binder can also be missed. Background: pairings of library AAYL50 with three empty control strains gave a value in 18% of cases (median 4.19, 5th percentile 2.99). Values in that range, when seen in few replicates, are hard to tell from nonspecific mating. Also given: how often the same scFv was detected with the empty control strains, with their mean in brackets.

VL | log10 Kd, replicates | control signals
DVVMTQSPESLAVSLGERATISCKSSQSVLYESMNKNMVAWYQQKAGQPPKLLIYWASHRESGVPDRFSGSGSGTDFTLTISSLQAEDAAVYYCQQYHRLPLSFGGGTKVEIK | 1.31 1.50 1.58 | 1/9 (4.85)
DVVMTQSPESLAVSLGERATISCKSSQSVLWESRNKNSVAWYQQKAGQPPKLLIYWASTRTSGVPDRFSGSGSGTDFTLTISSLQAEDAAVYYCQQYHRLPVSFGGGTKVEIK | 3.72 3.42 3.21 | 6/9 (4.23)
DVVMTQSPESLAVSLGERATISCKSSQSVLYESRNKVSVAWYQQKAGQPPKLLIYWASTAESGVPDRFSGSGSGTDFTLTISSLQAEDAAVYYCQQYYRLPLSFGGGTKVEIK | nd nd nd | 0/9
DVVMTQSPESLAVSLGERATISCISSQSVLYESRNKNWVAWYQQKAGQPPKLLIYWASTRESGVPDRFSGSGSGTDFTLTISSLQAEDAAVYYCQQYHRLPLSFGGGTKVEIK | nd nd nd | 0/9
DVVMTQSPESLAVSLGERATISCKSSQSVLYESRNKNSVAWYQQKAGQPPKLLIYWWSTRESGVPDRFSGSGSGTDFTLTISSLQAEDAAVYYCKQFHRLPLSFGGGTKVEIK | 4.42 4.93 6.22 | 5/9 (4.27)
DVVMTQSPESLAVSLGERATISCKSSQSVLYESRNKNSVAWYQQKAGQPPKLLIYWASTRERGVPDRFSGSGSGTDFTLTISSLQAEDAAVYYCQQYHRLPLHFGGGTKVEIK | nd nd nd | 0/9
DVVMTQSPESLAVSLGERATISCKSSQSVNYEKRLKNSVAWYQQKAGQPPKLLIYWASTRESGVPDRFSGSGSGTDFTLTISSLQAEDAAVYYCQQYHRLPLSFGGGTKVEIK | 2.00 1.77 1.94 | 2/9 (4.23)
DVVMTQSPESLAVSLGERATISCKSSQSVLYESRNKNSVAWYQQKAGQPPKLLIYWASGRESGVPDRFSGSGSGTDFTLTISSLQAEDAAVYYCQQYHRLPHSFGGGTKVEIK | nd nd nd | 0/9
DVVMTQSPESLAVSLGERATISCGASQSVLYESRNKNSVAWYQQKAGQPPKLLIYWPSTRESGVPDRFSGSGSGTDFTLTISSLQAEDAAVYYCQQYHRLPLSFGGGTKVEIK | nd nd 4.32 | 0/9
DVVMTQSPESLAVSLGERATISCKSSQSVLYESRNKNSKAWYQQKAGQPPKLLIYWASTRESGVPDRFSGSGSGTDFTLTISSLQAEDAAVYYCQQYHKLPLSFGGGTKVEIK | 4.12 5.54 nd | 5/9 (4.18)
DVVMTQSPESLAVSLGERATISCKSWQNVLYESRNKNSVAWYQQKAGQPPKLLIYKASTRESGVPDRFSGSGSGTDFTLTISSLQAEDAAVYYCQQYHRLPLSFGGGTKVEIK | 1.03 0.57 0.61 | 0/9
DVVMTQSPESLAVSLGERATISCKCSQGVLYESRNKKSVAWYQQKAGQPPKLLIYWASTRESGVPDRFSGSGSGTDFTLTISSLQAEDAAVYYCQQYHRLPLSFGGGTKVEIK | 0.97 1.01 1.14 | 3/9 (3.42)
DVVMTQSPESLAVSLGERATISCKSSQSVLYESRNFNSVAWYQQKAGQPPKLLIYWASTRESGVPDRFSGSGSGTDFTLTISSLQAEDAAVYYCQQYHFLKLSFGGGTKVEIK | nd nd nd | 0/9
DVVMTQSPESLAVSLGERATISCKSSQSVLYESRKKNSVAWYQQKAGQPPKLLIYWASTRESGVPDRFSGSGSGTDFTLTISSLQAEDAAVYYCQQYHRLCTSFGGGTKVEIK | nd nd 2.71 | 0/9
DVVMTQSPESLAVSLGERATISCSSSQSVLYESRNKNSRAWYQQKAGQPPKLLIYWASTRMSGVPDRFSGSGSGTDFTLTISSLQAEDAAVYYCQQYHRLPLSFGGGTKVEIK | 4.56 nd nd | 1/9 (4.12)
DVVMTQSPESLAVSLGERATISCKSSQSVLYESRTANSVAWYQQKAGQPPKLLIYWASTRESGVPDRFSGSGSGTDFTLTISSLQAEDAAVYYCQQYHRLPLSFGGGTKVEIK | 1.01 1.09 0.98 | 0/9
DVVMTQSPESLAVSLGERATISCKSSPSVLYESRNKNSVAWYQQKAGQPPKLLIYWASMRESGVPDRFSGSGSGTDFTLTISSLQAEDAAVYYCSQYHRLPLSFGGGTKVEIK | 2.28 1.95 2.18 | 5/9 (4.26)
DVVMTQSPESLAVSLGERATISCKSQSSVLYESRNKNSVAWYQQKAGQPPKLLIYWASTRESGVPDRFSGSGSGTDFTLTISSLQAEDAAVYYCQQKHRLPLSFGGGTKVEIK | 1.45 1.62 1.62 | 1/9 (2.67)
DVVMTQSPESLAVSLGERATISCKSSQSVLYESRNKNSVAWYQQKAGQPPKLLIYMASTRESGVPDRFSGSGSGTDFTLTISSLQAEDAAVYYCQQEHFLPLSFGGGTKVEIK | nd nd nd | 0/9
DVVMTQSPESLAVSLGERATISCKSSQSYLYESRNKNSVAWYQQKAGQPPKLLIYWASTRESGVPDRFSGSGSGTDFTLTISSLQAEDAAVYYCQQYHRLPQQFGGGTKVEIK | nd 4.53 nd | 3/9 (4.45)
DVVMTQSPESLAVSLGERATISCKSSQCVLYESRNKNSVAWYQQKAGQPPKLLIYWASTRETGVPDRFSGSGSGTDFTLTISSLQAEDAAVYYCQQYHRLPVSFGGGTKVEIK | 1.98 2.33 2.06 | 3/9 (5.30)
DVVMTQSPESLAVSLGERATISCKSSQSVLYWSRNNNSVAWYQQKAGQPPKLLIYWASQRESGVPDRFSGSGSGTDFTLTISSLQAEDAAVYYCQQYHRLPLSFGGGTKVEIK | 1.61 2.19 1.30 | 0/9

Picked from the list: the 2 lowest averages where every replicate gave a value.

VL | log10 Kd, replicates | control signals
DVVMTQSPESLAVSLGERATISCKSWQNVLYESRNKNSVAWYQQKAGQPPKLLIYKASTRESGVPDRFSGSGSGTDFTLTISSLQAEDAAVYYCQQYHRLPLSFGGGTKVEIK | 1.03 0.57 0.61 | 0/9
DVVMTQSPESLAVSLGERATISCKSSQSVLYESRTANSVAWYQQKAGQPPKLLIYWASTRESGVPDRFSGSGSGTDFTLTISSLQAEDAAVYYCQQYHRLPLSFGGGTKVEIK | 1.01 1.09 0.98 | 0/9